Assay results reported in article PMC8230603, “Rad52 Oligomeric N-Terminal Domain Stabilizes Rad51 Nucleoprotein Filaments and Contributes to Their Protection against Srs2” (Cells, 2021).

Biological target: T1, Rad52-V95I-FLAG (expressed in yeast) (S. cerevisiae, UniProt P06778 1-471, V95I)
T1 construct: Rad52, S. cerevisiae, with V95I; the RAD52 gene with a C-terminal tag; amino acids are numbered from the first AUG codon in the RAD52 mRNA; Mutation isolated from a random RAD52 library; also called FLAG-tagged Rad52-V95I; source: S. cerevisiae, rad52-V95I-FLAG allele on a centromeric YCplac111 plasmid, in whole-cell extract; not shown: His-FLAG (printed as 3His-6FLAG and as 6His-3FLAG), …
Assay: co-IP; yeast whole-cell extract (1 mg); Rad52-FLAG precipitated with anti-FLAG antibody, eluted with 3XFLAG peptide; Rad59-MYC detected with anti-MYC
Conditions: partners not purified

B1: Rad59-MYC (natural protein, S. cerevisiae, UniProt Q12223 1-238, looked up)
chain: MTIQAKPSSSISYDSTTYGTAPGLDIKEFQIIEDWNGRPASAWSVQRIGLLQSKIERYTYNIYHNNKYGKHNLSKLIPGHALIQFANETFGYDGWRMDVIDVEARECQPFTAVNNGENTNTSEVKYTVVAEAQVKVTLKDGTNTQCGGLGRITLSSRGECYNRSKKEAVGDALKKALLSFEKIILDYETKITNNYYVDGLYGSKKIKNEANTNYNLLSATNSKPTFIKLEDAKGTHIK
notes: Rad59, the Rad52 paralog, S. cerevisiae; also called MYC-tagged Rad59; source: S. cerevisiae, in whole-cell extract
Question: With B1 as the binder, how does the “fold reduction of co-immunoprecipitated Rad59 against WT Rad52” value read?
Answer: 2 fold
